Screens (PubChem)
Rows were chosen to be rich in hits. Some 1.2% of all compounds tested hit in one or more screens of this group.
C2C12 statin: protects C2C12 myotubes from simvastatin toxicity | ATP luminescence, 48 h; scaled: DMSO 0, geranylgeraniol control 100 | rescue of ATP level, % at 7.49 µM | actives 0.78% (n = 330,000) | AID 602340;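 active means mean ATP rescue above about 67%, or every replicate alone reaching that limit, limit read from the data, passing the limit was not always enough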;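 further: myotubes were challenged with 10 µM simvastatin during compound exposure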
miR-122 sensor: miR-122 inhibition in Huh7 cells | actives 0.3% (n = 340,000) | activation (reporter increase), % at 12.5 µM | AID 602342 | Huh7 miR-122 Renilla luciferase sensor, 48 h; neutral wells = 0, positive control = 100;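 active means mean replicate activation score at least 90 and every replicate individually at or above 90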;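 further: higher luciferase means less miR-122 activity so hits act as miR-122 inhibitors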
UUG fidelity: yeast start codon fidelity modulation; AID 602363; activity score, % at 18.7 µM; S. cerevisiae UUG-firefly luciferase reporter, luminescence/redox ratio; 0.13% of 350,000 active;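 active means replicate mean at a twofold rise or more, about +100% in these data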;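 further: firefly luciferase made from a UUG start codon reports start codon fidelity; reporter light over untreated wells divided by growth signal over untreated wells; some hits fall short of that in this replicate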
Cneo AK release: causes C. neoformans cell lysis. lysis activity, % at 15 µM. AID 651654. actives 0.2% (n = 360,000). adenylate kinase release luminescence, 4 h; normalised: neutral wells 0, clomiphene wells 100;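 active means mean lysis activity across replicates of at least 80%, whatever share of replicates individually reach that level; inactive means mean lysis activity below 80%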
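Test system: log-phase Cryptococcus neoformans yeast cells; Quantity: yeast cell density of 5 × 10^6 cells/mL; Buffer or medium: YPD; Doses: single compound concentration per well; Timing: 4 h at 37 °C static, read 1 h later; Measured by: AK luminescence; Read-out basis: lysis from increased AK signal; Control set: Clomiphene as positive control.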
* marks the source's active call; other numbers are inactive results; / = no result; ! = not confirmed by another sample; [ ] = another dose, or the depositor's remark.

No.	SMILES	C2C12 statin	miR-122 sensor
1	COCC#Cc1cnc2c(c1)C(=O)N([C@@H](C)CO)C[C@H](C)[C@H](CN(C)C(=O)Nc1ccc(OC)cc1)O2	7	25[16.7 µM]
2	COc1ccc(C#Cc2cnc3c(c2)C(=O)N([C@H](C)CO)C[C@@H](C)[C@@H](CN(C)C(=O)Nc2cccc(OC)c2)O3)cc1	49	-11[16.7 µM]
3	COc1ccc(C#Cc2cnc3c(c2)C(=O)N([C@H](C)CO)C[C@H](C)[C@@H](CN(C)C(=O)Nc2cccc(OC)c2)O3)cc1	112*!	-5
4	COc1ccc(C#Cc2cnc3c(c2)C(=O)N([C@@H](C)CO)C[C@H](C)[C@@H](CN(C)C(=O)CC2CC2)O3)cc1	-1	-15[16.7 µM]
5	C[C@H](CO)N1C[C@H](C)[C@@H](CN(C)C(=O)Nc2ccc(C(F)(F)F)cc2)Oc2ccc(NS(=O)(=O)c3cccs3)cc2CC1=O	-10	4[16.7 µM]
6	C[C@@H]1CN([C@@H](C)CO)C(=O)c2cccc(NC(=O)c3ccc(-c4nccs4)cc3)c2O[C@H]1CN(C)Cc1ccc2c(c1)OCO2	54	-38[16.7 µM]
7	Cc1ccc(S(=O)(=O)NCCN=C(CN2CCCC2)NS(=O)(=O)c2ccc(C)cc2)cc1	112*	62
8	CC(C)OCC(O)CN (centres undefined)	97*	-2
9	C[C@@H]1CN([C@@H](C)CO)C(=O)c2cccc(NS(C)(=O)=O)c2O[C@@H]1CN(C)C(=O)Nc1ccc2c(c1)OCO2	/	9[16.7 µM]
10	C[C@H]1CN([C@@H](C)CO)C(=O)c2cccc(NS(C)(=O)=O)c2O[C@H]1CN(C)C(=O)Nc1ccc2c(c1)OCO2	/	-4[16.7 µM]

No.	UUG fidelity	Cneo AK release
1	7	109*
2	2	/
3	1	2
4	/	88*
5	-2	0
6	-15	-4
7	-2	-3
8	-8	0
9	35	88*
10	28	114*

Compound profiles, as listed above. Order of values: C2C12 statin | miR-122 sensor | UUG fidelity | Cneo AK release
COc1ccc(C#Cc2cnc3c(c2)C(=O)N([C@H](C)CO)C[C@@H](C)[C@@H](CN(C)C(=O)Nc2cccc(OC)c2)O3)cc1 in the list: 49 | -11[16.7 µM] | 2 | /
C[C@@H]1CN([C@@H](C)CO)C(=O)c2cccc(NS(C)(=O)=O)c2O[C@@H]1CN(C)C(=O)Nc1ccc2c(c1)OCO2 in the list: / | 9[16.7 µM] | 35 | 88*
C[C@H]1CN([C@@H](C)CO)C(=O)c2cccc(NS(C)(=O)=O)c2O[C@H]1CN(C)C(=O)Nc1ccc2c(c1)OCO2 in the list: / | -4[16.7 µM] | 28 | 114*
C[C@H](CO)N1C[C@H](C)[C@@H](CN(C)C(=O)Nc2ccc(C(F)(F)F)cc2)Oc2ccc(NS(=O)(=O)c3cccs3)cc2CC1=O in the list: -10 | 4[16.7 µM] | -2 | 0

Other results follow:
No.	SMILES	C2C12 statin	miR-122 sensor
11	C[C@@H]1CN([C@H](C)CO)C(=O)Cc2cc(NC(=O)Nc3ccc4c(c3)OCO4)ccc2O[C@@H]1CN(C)S(=O)(=O)c1ccc(Cl)cc1	0	-5[16.7 µM]
12	O=C(CCc1ccccc1)Nc1ncc2c(n1)CCCC2=O	5	3
13	CC1(C)CC(=O)c2cnc(NC(=O)CCc3ccccc3)nc2C1	93*	-3
14	Cc1ccc(Cc2nnc3n(-c4ccccc4)nc(C(=O)c4ccccc4)n3c2=O)cc1	91*	-5
15	C[C@H]1CN([C@@H](C)CO)C(=O)c2cc(C#Cc3ccc(F)cc3)cnc2O[C@H]1CN(C)C(=O)Nc1ccc(F)cc1	24	0[16.7 µM]
16	C[C@@H]1CCCCO[C@H](CN(C)Cc2ccc(C(=O)O)cc2)[C@@H](C)CN([C@@H](C)CO)C(=O)c2cc(NC(=O)CCC(F)(F)F)ccc2O1	/	7[16.7 µM]
17	C[C@H]1CN([C@@H](C)CO)S(=O)(=O)c2ccc(C#CC3CC3)cc2O[C@H]1CN(C)Cc1cncnc1	-2	-4[16.7 µM]
18	C[C@@H]1CN([C@@H](C)CO)S(=O)(=O)c2ccc(C#CC3CC3)cc2O[C@H]1CN(C)CC1CCOCC1	-84	46[16.7 µM]
19	C[C@@H]1CN([C@@H](C)CO)S(=O)(=O)c2ccc(C#CC3CCCC3)cc2O[C@H]1CN(C)C(=O)Cc1ccccc1	-29	108*[16.7 µM]
20	C[C@H](CO)N1C[C@H](C)[C@@H](CN(C)Cc2cncnc2)Oc2cc(C#CC3CCCC3)ccc2S1(=O)=O	-16	95*[16.7 µM]

No.	UUG fidelity	Cneo AK release
11	-8	0
12	7	-1
13	-9	1
14	-8	4
15	-7	-1
16	1	-1
17	/	/
18	26	87*
19	-5	1
20	/	49

(more compounds)
No.	SMILES	C2C12 statin	miR-122 sensor
21	C[C@H]1CN([C@@H](C)CO)S(=O)(=O)c2ccc(C#CC3CC3)cc2O[C@@H]1CN(C)CC1CCOCC1	-27	25[16.7 µM]
22	C[C@H]1CN([C@@H](C)CO)C(=O)Cc2cc(NS(=O)(=O)c3cccs3)ccc2O[C@@H]1CN(C)CC1CCCCC1	-16	18[16.7 µM]
23	COCC(=O)Nc1ccc2c(c1)[C@H]1C[C@@H](CC(=O)NCc3ccccn3)O[C@@H](CO)[C@H]1O2	-2	-4[16.7 µM]
24	COc1ccccc1NC(=O)c1ccc2nc(-c3ccccc3)c(-c3ccccc3)nc2c1	84*	-9
25	COc1ccccc1NC(=O)c1ccc2nsnc2c1	7	3
26	COc1cc(NC(=O)c2ccccc2)c(OC)cc1Cl	130*	2
27	COc1cc(N)c(Cl)cc1NC(=O)c1ccccc1	4	-40
28	O=C(NCC[C@@H]1CC[C@H](NC(=O)c2ccc3c(c2)OCO3)[C@@H](CO)O1)Nc1cc(F)ccc1F	0	-5[16.7 µM]
29	C[C@@H]1CN([C@H](C)CO)C(=O)c2cc(-c3ccc(F)cc3)cnc2O[C@H]1CN(C)C(=O)Nc1ccc(F)cc1	21	3[16.7 µM]
30	CCOC(=O)c1c(-c2cccs2)csc1NC(=O)CN1CCOCC1	93*	-4

No.	UUG fidelity	Cneo AK release
21	15	8
22	-3	11
23	-18	0
24	-11	0
25	3	5
26	-15	4
27	-6	-5
28	-3	-3
29	-5	/
30	-8	0

More entries:
No.	SMILES	C2C12 statin	miR-122 sensor
31	CCOC(=O)c1c(-c2ccc(C)o2)csc1NC(=O)CN1CCOCC1	-6	-5
32	CC(=O)c1cccc(NC(=O)Cn2cnc(S(=O)(=O)N3CCCCC3)c2)c1	7	-8
33	CC(=O)c1ccc(N2CCN(C(=O)Cc3cccs3)CC2)cc1	1	-1
34	CC(=O)c1ccc(N2CCN(C(=O)Cn3cnc(S(=O)(=O)N4CCCCC4)c3)CC2)cc1	98*	-1
35	C[C@H]1CCCCO[C@@H](CN(C)C(=O)Cc2ccccc2)[C@@H](C)CN([C@@H](C)CO)C(=O)c2cc(NC(=O)CCC(F)(F)F)ccc2O1	23	-8[16.7 µM]
36	CO[C@@H](CN(C)Cc1ccc2c(c1)OCO2)[C@@H](C)CN(C(=O)c1ccccc1)[C@H](C)CO	10	/
37	CO[C@@H](CN(C)Cc1ccc2c(c1)OCO2)[C@H](C)CN(C(=O)c1ccccc1)[C@@H](C)CO	5	/
38	Cc1ccc(S(=O)(=O)Nc2ccc3c(c2)CC(=O)N([C@@H](C)CO)C[C@@H](C)[C@H](CN(C)Cc2ccc(-c4ccccc4)cc2)O3)cc1	103*	-26[16.7 µM]
39	C[C@@H]1CN([C@@H](C)CO)C(=O)Cc2cc(NS(=O)(=O)c3cn(C)cn3)ccc2O[C@@H]1CN(C)Cc1ccc(Oc2ccccc2)cc1	12	3[16.7 µM]
40	C[C@H](CO)N1C[C@H](C)[C@@H](CN(C)Cc2ccccc2)Oc2ccc(NS(=O)(=O)c3ccc(Cl)cc3)cc2CC1=O	58	-4[16.7 µM]
41	COc1ccc(CN(C)C[C@@H]2Oc3ccc(NS(=O)(=O)c4ccc(Cl)cc4)cc3CC(=O)N([C@@H](C)CO)C[C@@H]2C)cc1	11	-1[16.7 µM]
42	C[C@@H]1CN([C@H](C)CO)C(=O)Cc2cc(NS(=O)(=O)c3ccc(Cl)cc3)ccc2O[C@H]1CN(C)Cc1ccccc1	96*	-3[16.7 µM]
43	COc1ccc(CN(C)C[C@@H]2Oc3ccc(NS(=O)(=O)c4ccc(Cl)cc4)cc3CC(=O)N([C@H](C)CO)C[C@H]2C)cc1	95*	1[16.7 µM]

No.	UUG fidelity	Cneo AK release
31	-11	-2
32	-6	4
33	-1	153*
34	-12	1
35	8	-3
36	/	96*
37	/	-1
38	8	0
39	11	0
40	2	-2
41	6	1
42	-3	-7
43	-3	3
